Measurements as given in US6916432B2, “Hair bleach composition and hair dye composition” (Kao Corporation, priority 2000, dated 2005).

Assay: physchem

OCCc1ccccc1 [2-phenylethanol]
logP: 1.2
